Test results from patent US20200405868A1, “GEL-FORMING POLYPEPTIDES” (priority 2018, published 2020).

Assay: Compound gel-forming ability in water (visual inspection, tube tapping assay, tilted tube assay);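 further: peptides mixed with de-ionized water at about 22-25 °C, judged after 20 min by eye plus tube tapping (10 taps, moves counted) and 90° tilt mobility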
Format: physicochemical
Parameters: key to Physical property at 11% w/w / gel formation in aqueous solution, 20% / gel formation in aqueous solution, 11%: SS for semisolid gel; LG for liquid gel
Conditions: for gel formation at 11% w/w: 11% w/w in water; for gel formation at 20% w/w: 20% w/w in water; for gel formation in aqueous solution, 11% / gel formation in aqueous solution, 20%: Table 3; for gel formation in aqueous solution, 11%: 11% w/w; for gel formation in aqueous solution, 20%: 20% w/w

gel formation at 11% w/w	gel formation at 20% w/w	Physical property at 11% w/w (Table 1, 11% w/w in aqueous solution, room temperature)	gel formation in aqueous solution, 11%	gel formation in aqueous solution, 20%	Substance
liquid gel	liquid gel	LG	LG	LG	Pal-HSDKPDMAEIEKFDKSKLKKTETQEKNPLPSKETIEQEKQAGES-NH2 [SEQ ID NO:263]
liquid gel	liquid gel	–	LG	LG	Pal-KVQKLSAPVDPSSPHSY-miniPEG-ELYENKPRRPYIL [SEQ ID NO:207]
